Target: T1, porcine pancreatic α-amylase (Sus scrofa, UniProt P00690)
T1 sequence (P00690 16-511): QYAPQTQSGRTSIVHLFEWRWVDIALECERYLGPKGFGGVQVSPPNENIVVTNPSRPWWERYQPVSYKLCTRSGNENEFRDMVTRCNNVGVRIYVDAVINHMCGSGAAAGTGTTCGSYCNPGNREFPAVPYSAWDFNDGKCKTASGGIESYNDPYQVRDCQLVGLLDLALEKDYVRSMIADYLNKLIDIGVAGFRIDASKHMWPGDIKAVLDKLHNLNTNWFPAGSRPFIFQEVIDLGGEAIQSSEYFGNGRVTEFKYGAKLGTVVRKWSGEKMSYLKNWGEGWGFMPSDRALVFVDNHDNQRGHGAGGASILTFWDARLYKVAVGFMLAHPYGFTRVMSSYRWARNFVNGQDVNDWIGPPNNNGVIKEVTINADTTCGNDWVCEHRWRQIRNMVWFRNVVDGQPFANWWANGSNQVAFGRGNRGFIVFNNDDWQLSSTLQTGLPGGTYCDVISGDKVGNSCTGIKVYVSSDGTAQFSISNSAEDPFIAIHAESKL
Test: In vitro α-amylase inhibition assay (BioVision kit / modified DNSA method)
Conditions: Table 1S

C[C@H]1O[C@H](O[C@H]2[C@H](O)[C@@H](O)[C@@H](O[C@H]3[C@H](O)[C@@H](O)C(O)O[C@@H]3CO)O[C@@H]2CO)[C@H](O)[C@@H](O)[C@@H]1N[C@H]1C=C(CO)[C@@H](O)[C@H](O)[C@H]1O (stereo partly shown) [Acarbose, reference compound]
%inh α-amylase (conc 0.1 (µg/mL)): 44.3%
%inh α-amylase (conc 1 (µg/mL)): 62.8%
%inh α-amylase (conc 10 (µg/mL)): 84.2%
%inh α-amylase (conc 100 (µg/mL)): 93.4%

From article PMC12297423, “Dual α-amylase and α-glucosidase inhibition by 1,2,4-triazole derivatives for diabetes treatment” (Scientific Reports, 2025)
